Assays:
[1] = test system: BT474 human breast carcinomas; experiment: BT474 xenograft tumour growth delay study; format: in vivo, SCID mice
Source text: Female severe combined immune-deficient mice (Fox Chase SCID®, C.B-17/Icr-Prkdcscid, Charles River) were ten weeks old with a body weight (BW) range of 16.2 to 21.9 grams on Day 1 of the study. The animals were fed adlibitum water (reverse osmosis, 1 ppm Cl), and NIH 31 Modified and Irradiated Lab Diet® consisting of 18.0% crude protein, 5.0% crude fat, and 5.0% crude fibre. The mice were housed on irradiated Enricho'cobs™ Laboratory Animal Bedding in static micro-isolators on a 12-hour light cycle at 20-22° C. (68-72° F.) and 40-60% humidity. CR Discovery Services specifically complies with the recommendations of the Guide for Care and Use of Laboratory Animals with respect to restraint, husbandry, surgical procedures, feed and fluid regulation, and veterinary care. The animal care and use program at CR Discovery Services is accredited by the Association for Assessment and Accreditation of Laboratory Animal Care International (AAALAC), which assures compliance with accepted standards for the care and use of laboratory animals.
Xenografts were initiated with BT474 human breast carcinomas maintained at CR Discovery Services by serial subcutaneous transplantation into the SCID mice (see above). On the day of tumour implant, each test mouse received a 1-mm^3 BT474 fragment implanted subcutaneously in the right flank, and tumour growth was monitored as the average size approached the target range of 100 to 150 mm^3. […] Tumours were measured in two dimensions using calipers, and volume was calculated using the formula: […]
Treatment began on Day 1 in groups of mice (n=10) with established subcutaneous BT474 tumors (75-196 mm^3). […] Tumors were measured twice per week until the study was ended on Day 60. […] The time to endpoint (TTE) was calculated for each mouse.
Treatment outcome was determined from percent tumor growth delay (% TGD), defined as the percent increase in median TTE for treated versus control mice, with differences between groups deemed statistically significant at P s 0.05 using logrank survival analysis. […]

[2] = test system: Human NCI-N87 gastric carcinoma; experiment: NCI-N87 xenograft tumour growth delay study; format: in vivo, SCID mice; conditions: for median TTE: vehicle 44.9 days, 83-day study
Description: Human NCI-N87 gastric carcinoma lymphoma cells were cultured in RPMI-1640 medium supplemented with 10% fetal bovine serum, 2 mM glutamine, 100 units/mL penicillin, 100 µg/mL streptomycin sulfate and 25 µg/mL gentamicin. The cells were grown in tissue culture flasks in a humidified incubator at 37° C., in an atmosphere of 5% CO2 and 95% air.
The NCI-N87 cells used for implantation were harvested during log phase growth and resuspended in phosphate buffered saline (PBS) containing 50% Matrigel™ (BD Biosciences). On the day of tumor implant, each test mouse (SCID mice as in Example 6) was injected subcutaneously in the right flank with 1×10^7 cells (0.1 mL cell suspension), and tumor growth was monitored as the average size approached the target range of 100 to 150 mm^3. Eleven days later, designated as Day 1 of the study, mice were sorted according to calculated tumor size into eleven groups each consisting of ten animals with individual tumor volumes ranging from 88 to 144 mm^3 and group mean tumor volumes of 119-121 mm3. Tumors were measured in two dimensions using calipers, and volume was calculated using the formula:
Tumour Volume (mm^3)=0.5(w^2×l)
(§1) Treatment began on Day 1 in groups of mice (n=10) with established subcutaneous NCI-N87 tumors (88-144 mm^3). […] A vehicle-treated group served as the control group for efficacy analysis. Tumors were measured twice per week until the study was ended on Day 81. Each mouse was euthanized when its tumor reached the endpoint volume of 800 mm^3 or on the final day, whichever came first. The time to endpoint (TTE) was calculated for each mouse.
(§2) Treatment outcome was determined from percent tumor growth delay (% TGD), defined as the percent increase in median TTE for treated versus control mice, with differences between groups deemed statistically significant at P s 0.05 using logrank survival analysis. Mice were monitored for complete regression (CR) and partial regression (PR) responses.
Treatment tolerability was assessed by body weight measurements and frequent observation for signs of treatment-related side effects. Treatment tolerability was assessed by body weight measurements and frequent observation for signs of treatment-related side effects. All regimens were acceptably tolerated.
as §1, with “(75-126” for “(88-144”, “83.” for “81.”
as §2, with “responses. Treatment tolerability was assessed by body weight measurements and frequent observation for signs of treatment-related side effects. Treatment tolerability was assessed by body weight measurements and frequent observation for signs of treatment-related side effects. All regimens were acceptably tolerated.” for “responses.”

[3] = test system: SKBR3; experiment: In vitro ADC cytotoxicity, MTS cell viability assay; format: cell-based; conditions: ADC exposure 4 days
Description: Medium from sub-confluent (80-90% confluency) cell culture in a T75 flask was aspirated and the flask rinsed with PBS (about 20 ml) and emptied. Trypsin-EDTA (5 ml) was added, the flask returned to the 37° C. gassed incubator for up to about 5 minutes, then rapped sharply to dislodge and dissociate cells from the plastic. The cell suspension was transferred to a sterile 50 ml screw-top centrifuge tube, diluted with growth medium to a final volume of 15 ml, then centrifuged (400 g for 5 min). The supernatant was aspirated and the pellet re-suspended in 10 ml culture medium. Repeated pipetting may be necessary to produce monodisperse cell suspensions. The cell concentration and viability are measured of trypan blue cell stained cells, using a haemocytometer. Cells were diluted to 2×10^5/ml, dispensed (50 μl/well) into 96 well flat bottom plates and incubated overnight before use. […]
At the end of the incubation period, cell viability was measured by MTS assay. […] Well absorbance was measured at 490 nm. Percentage cell survival was calculated from the mean absorbance in the 4 ADC-treated wells compared to the mean absorbance in the 4 control untreated wells (100%). IC50 was determined from the doses-response data using GraphPad Prism using the non-linear curve fit algorithm: sigmoidal, 4PL X is log(concentration).

[4] = Rat single dose toxicity study (MTD) / therapeutic index; format: in vivo, Male Sprague Dawley rats; conditions: single iv dose, 7 mg/kg
[5] = Cynomolgus macaque single-dose toxicity study; format: in vivo, Cynomolgus macaques monkeys (Macaca fascicularis); conditions: cyno
[6] = Treatment 1: 1 mg/kg iv qd×1, n=10

| Substance | partial regressions (PRs) ([1]; Treatment 2: 1 mg/kg iv qd×1, n=9 or 10) | complete regression (CR) ([1]; Treatment 2: 1 mg/kg iv qd×1, remained a tumour-free survivor (TFS) at study end) | TGD ([2]; Treatment 2: 0.3 mg/kg iv qd×1) [days] | TGD (percent) ([2]; Treatment 2: 0.3 mg/kg iv qd×1) [%] | median TTE ([2]; Treatment 2: 0.3 mg/kg iv qd×1) [days] | TGD ([2]; Treatment 2: 1 mg/kg iv qd×1) [days] | TGD (percent) ([2]; Treatment 2: 1 mg/kg iv qd×1) [%] | median TTE ([2]; Treatment 2: 1 mg/kg iv qd×1) [days] | IC50 in SKBR3 [3] [µg/mL] | adverse findings at the high dose [4] | major findings at the highest tested dose ([5]; single iv dose 6 mg/kg) | mortality ([5]; single iv dose 1, 3, 4.5 or 6 mg/kg) | toxicity at next lowest dose ([5]; single iv dose […]) | partial regressions (PRs) [1, 6] | TGD ([2]; Treatment 1: 0.3 mg/kg iv qd×1) [days] | TGD (percent) ([2]; Treatment 1: 0.3 mg/kg iv qd×1) [%] | median TTE (time to endpoint) ([2]; Treatment 1: 0.3 mg/kg iv qd×1, endpoint 800 mm^3, vehicle 53.4 days) [days] | partial regressions (PR) [2, 6] | survival benefit versus vehicle-treated controls (logrank) ([2]; Treatment 1: 1 mg/kg iv qd×1, P<0.001) | tumor growth delay (TGD) ([2]; Treatment 1: 1 mg/kg iv qd×1, maximum possible TGD 27.6 days (52%), 81-day study) |
| --- | --- | --- | --- | --- | --- | --- | --- | --- | --- | --- | --- | --- | --- | --- | --- | --- | --- | --- | --- | --- |
| Trastuzumab-40 | four | one | 9.3 | 21 | 54.2 | 16.7 | 37 | 61.6 | 0.019 |  |  |  |  |  |  |  |  |  |  |  |
| Trastuzumab-23: trastuzumab conjugated to drug linker Compound 23 (SG3400); DAR 1.71 |  |  |  |  |  |  |  |  | 0.022 | minimal adverse findings | body weight loss and bone marrow suppression | no unscheduled mortality | minimal signs of toxicity | four | 27.1 | 51 | 80.5 | one | statistically significantly different | maximum possible TGD |

Reference: patent US20230143309A1, “PYRROLOBENZODIAZEPINE ANTIBODY CONJUGATES” (priority 2016, published 2023)
